Reference: patent publication US6953793B2 (priority 2000, dated 2005)

Sequences of proteins named here, by UniProt entry; tags and fusion partners are left off. Residues count along the entry.
UniProt P25774, 115-331: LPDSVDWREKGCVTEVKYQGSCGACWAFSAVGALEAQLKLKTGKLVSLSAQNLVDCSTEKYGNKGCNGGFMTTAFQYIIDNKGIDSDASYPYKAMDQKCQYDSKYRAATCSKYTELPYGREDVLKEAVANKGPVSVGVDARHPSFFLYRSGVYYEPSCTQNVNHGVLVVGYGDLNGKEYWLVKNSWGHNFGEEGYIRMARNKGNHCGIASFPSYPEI

Biological target: T1, Recombinant human cathepsin S (CatS) (Homo sapiens, UniProt P25774)
T1 construct: made in house; host or cells: baculovirus system (insect cells)
Experiment: biochemical

Going from `CC(=O)N1CCc2c(c(-c3ccc(Cl)c(C)c3)nn2C[C@@H](O)CN2CCC(n3c(=O)[nH]c4ccc(Cl)cc43)CC2)C1` [Example 293, (S)-1-(1-{3-[5-Acetyl-3-(4-chloro-3-methyl-phenyl)-4,5,6,7-tetrahydro-pyrazolo[4,3-c]pyridin-1-yl]-2-hydroxy-propyl}-piperidin-4-yl)-6-chloro-1,3-dihydro-benzoimidazol-2-one] to `CC(=O)N1CCc2c(c(-c3ccc(Cl)c(C)c3)nn2CC(O)CN2CCC(n3c(=O)oc4ccc(Cl)cc43)CC2)C1` (stereo not drawn) [Example 396, 3-(1-{3-[5-Acetyl-3-(4-chloro-3-methyl-phenyl)-4,5,6,7-tetrahydro-pyrazolo[4,3-c]pyridin-1-yl]-2-hydroxy-propyl}-piperidin-4-yl)-5-chloro-3H-benzooxazol-2-one], the IC50 rises from 160 nM to 310 nM (1.9-fold).

First: Cn1c(=O)n(C2CCN(CCCn3nc(-c4ccc(C(F)(F)F)cc4)c4c3CCN(C(=O)c3ccno3)C4)CC2)c2ccccc21 [Example 334, 1-(1-{3-[5-(Isoxazole-5-carbonyl)-3-(4-trifluoromethyl-phenyl)-4,5,6,7-tetrahydro-pyrazolo[4,3-c]pyridin-1-yl]-propyl}-piperidin-4-yl)-3-methyl-1,3-dihydro-benzoimidazol-2-one]
Second: CC(=O)N1CCc2c(c(-c3ccc(C(F)(F)F)cc3)nn2CC(O)CN2CCC(n3c(=O)n(C)c4ccccc43)CC2)C1 (stereo not drawn) [Example 300, 1-(1-{3-[5-Acetyl-3-(4-trifluoromethyl-phenyl)-4,5,6,7-tetrahydro-pyrazolo[4,3-c]pyridin-1-yl]-2-hydroxy-propyl}-piperidin-4-yl)-3-methyl-1,3-dihydro-benzoimidazol-2-one]
The IC50 of the first is 1.8-fold lower: 80 nM for the first, 140 nM for the second.

Going from `CS(=O)(=O)N1CCc2c(c(-c3ccc(C(F)(F)F)cc3)nn2CC(O)CN2CCC(n3c(=O)[nH]c4ccc(Cl)cc43)CC2)C1` (stereo not drawn) [Example 325, 6-Chloro-1-(1-{2-hydroxy-3-[5-methanesulfonyl-3-(4-trifluoromethyl-phenyl)-4,5,6,7-tetrahydro-pyrazolo[4,3-c]pyridin-1-yl]-propyl}-piperidin-4-yl)-1,3-dihydro-benzoimidazol-2-one] to `Cn1c(=O)n(C2CCN(CC(O)Cn3nc(-c4ccc(C(F)(F)F)cc4)c4c3CCN(S(C)(=O)=O)C4)CC2)c2ncccc21` (stereo not drawn) [Example 330, 3-(1-{2-Hydroxy-3-[5-methanesulfonyl-3-(4-trifluoromethyl-phenyl)-4,5,6,7-tetrahydro-pyrazolo[4,3-c]pyridin-1-yl]-propyl}-piperidin-4-yl)-1-methyl-1,3-dihydro-imidazo[4,5-b]pyridin-2-one], the IC50 falls from 90 nM to 60 nM (1.5-fold). The second is the more potent here.

Compared with `CC(=O)N1CCc2c(c(-c3ccc(C(F)(F)F)cc3)nn2CC(O)CN2CCC(Oc3ccc(Cl)cc3)CC2)C1` (stereo not drawn) [Example 249, 1-[1-{3-[4-(4-Chloro-phenoxy)-piperidin-1-yl]-2-hydroxy-propyl}-3-(4-trifluoromethyl-phenyl)-1,4,6,7-tetrahydro-pyrazolo[4,3-c]pyridin-5-yl]-ethanone], `CC(=O)N1CCc2c(c(-c3ccc(C(F)(F)F)cc3)nn2CC(O)CN2CCC(Oc3nc4ccccc4o3)CC2)C1` (stereo not drawn) [Example 111, 1-[1-{3-[4-(Benzooxazol-2-yloxy)-piperidin-1-yl]-2-hydroxy-propyl}-3-(4-trifluoromethyl-phenyl)-1,4,6,7-tetrahydro-pyrazolo[4,3-c]pyridin-5-yl]-ethanone] is 1.7-fold higher in IC50: 690 nM for the first, 1200 nM for the second. The first is the more potent here.

Going from `CCN(CC)CCn1c(=O)n(C2CCN(CC(O)Cn3nc(-c4ccc(Cl)c(C)c4)c4c3CCN(C(C)=O)C4)CC2)c2ccccc21` (stereo not drawn) [Example 320, 1-(1-{3-[5-Acetyl-3-(4-chloro-3-methyl-phenyl)-4,5,6,7-tetrahydro-pyrazolo[4,3-c]pyridin-1-yl]-2-hydroxy-propyl}-piperidin-4-yl)-3-(2-diethylamino-ethyl)-1,3-dihydro-benzoimidazol-2-one] to `CC(=O)N1CCc2c(c(-c3ccc(Cl)c(C)c3)nn2CC(O)CN2CCC(n3c(=O)n(CC#N)c4ccccc43)CC2)C1` (stereo not drawn) [Example 307, [3-(1-{3-[5-Acetyl-3-(4-chloro-3-methyl-phenyl)-4,5,6,7-tetrahydro-pyrazolo[4,3-c]pyridin-1-yl]-2-hydroxy-propyl}-piperidin-4-yl)-2-oxo-2,3-dihydro-benzoimidazol-1-yl]acetonitrile], the IC50 falls from 390 nM to 90 nM (4.3-fold). The second is the more potent here.

Compared with `CC(=O)N1CCc2c(c(-c3ccc(S(C)(=O)=O)cc3)nn2CC(O)CN2CCC(n3c(=O)[nH]c4ccccc43)CC2)C1` (stereo not drawn) [Example 258, 1-(1-{3-[5-Acetyl-3-(4-methanesulfonyl-phenyl)-4,5,6,7-tetrahydro-pyrazolo[4,3-c]pyridin-1-yl]-2-hydroxy-propyl}-piperidin-4-yl)-1,3-dihydro-benzoimidazol-2-one], `CC(=O)N1CCc2c(c(-c3ccc(Br)cc3)nn2CC(O)CN2CCC(n3c(=O)[nH]c4cc(C)ccc43)CC2)C1` (stereo not drawn) [Example 273, 1-(1-{3-[5-Acetyl-3-(4-bromo-phenyl)-4,5,6,7-tetrahydro-pyrazolo[4,3-c]pyridin-1-yl]-2-hydroxy-propyl}-piperidin-4-yl)-5-methyl-1,3-dihydro-benzoimidazol-2-one] is 2.6-fold lower in IC50: 230 nM for the first, 90 nM for the second.

First: CC(=O)N1CCc2c(c(-c3ccc(Br)cc3)nn2CC(O)CN2CCC(Oc3ccc(Cl)c(Cl)c3)CC2)C1 (stereo not drawn) [Example 239, 1-(3-(4-Bromo-phenyl)-1-{3-[4-(3,4-dichloro-phenoxy)-piperidin-1-yl]-2-hydroxy-propyl}-1,4,6,7-tetrahydro-pyrazolo[4,3-c]pyridin-5-yl)-ethanone]
Second: CC(=O)N1CCc2c(c(-c3ccc(Cl)cc3)nn2CC(O)CN2CCC(Nc3cc(Cl)ccc3C)CC2)C1 (stereo not drawn) [Example 226, 1-[1-{3-[4-(5-Chloro-2-methyl-phenylamino)-piperidin-1-yl]-2-hydroxy-propyl}-3-(4-chloro-phenyl)-1,4,6,7-tetrahydro-pyrazolo[4,3-c]pyridin-5-yl]-ethanone]
The IC50 of the first is 2.2-fold lower: 340 nM for the first, 750 nM for the second.

`CCOC(=O)c1ccc2c(c1)oc(=O)n2C1CCN(CC(O)Cn2nc(-c3ccc(Br)cc3)c3c2CCN(C(C)=O)C3)CC1` (stereo not drawn) [Example 388, 3-(1-{3-[5-Acetyl-3-(4-bromo-phenyl)-4,5,6,7-tetrahydro-pyrazolo[4,3-c]pyridin-1-yl]-2-hydroxy-propyl}-piperidin-4-yl)-2-oxo-2,3-dihydro-benzooxazole-6-carboxylic acid ethyl ester] and `CC(=O)N1CCc2c(c(-c3ccc(Cl)c(C)c3)nn2CC(O)CN2CCC(n3c(=O)oc4ccccc43)CC2)C1` (stereo not drawn) [Example 395, 3-(1-{3-[5-Acetyl-3-(4-chloro-3-methyl-phenyl)-4,5,6,7-tetrahydro-pyrazolo[4,3-c]pyridin-1-yl]-2-hydroxy-propyl}-piperidin-4-yl)-3H-benzooxazol-2-one] are within 1.5-fold of each other in IC50: 320 nM for the first, 390 nM for the second.

First: NC(=O)N1CCc2c(c(-c3ccc(C(F)(F)F)cc3)nn2CC(O)CN2CCC(n3c(=O)[nH]c4ccccc43)CC2)C1 (stereo not drawn) [Example 269, 1-{2-Hydroxy-3-[4-(2-oxo-2,3-dihydro-benzoimidazol-1-yl)-piperidin-1-yl]-propyl}-3-(4-trifluoromethyl-phenyl)-1,4,6,7-tetrahydro-pyrazolo[4,3-c]pyridine-5-carboxylic acid amide]
Second: CC(=O)N1CCc2c(c(-c3ccc(I)cc3)nn2CC(O)CN2CCC(n3c(=O)[nH]c4ccc(C#N)cc43)CC2)C1 (stereo not drawn) [Example 268, 3-(1-{3-[5-Acetyl-3-(4-iodo-phenyl)-4,5,6,7-tetrahydro-pyrazolo[4,3-c]pyridin-1-yl]-2-hydroxy-propyl}-piperidin-4-yl)-2-oxo-2,3-dihydro-1H-benzoimidazole-5-carbonitrile]
The IC50 of the first is 2.5-fold lower: 120 nM for the first, 300 nM for the second. The first is the more potent here.

`CS(=O)(=O)N1CCc2c(c(-c3ccc(C(F)(F)F)cc3)nn2CC(O)CN2CCC(c3nc4ccccc4o3)CC2)C1` (stereo not drawn) [Example 113, 1-(4-Benzooxazol-2-yl-piperidin-1-yl)-3-[5-methanesulfonyl-3-(4-trifluoromethyl-phenyl)-4,5,6,7-tetrahydro-pyrazolo[4,3-c]pyridin-1-yl]-propan-2-ol] and `CS(=O)(=O)N1CCc2c(c(-c3ccc(Br)cc3)nn2CC(O)CN2CCC(n3c(=O)[nH]c4cccnc43)CC2)C1` (stereo not drawn) [Example 371, 3-(1-{3-[3-(4-Bromo-phenyl)-5-methanesulfonyl-4,5,6,7-tetrahydro-pyrazolo[4,3-c]pyridin-1-yl]-2-hydroxy-propyl}-piperidin-4-yl)-1,3-dihydro-imidazo[4,5-b]pyridin-2-one] are within 1.5-fold of each other in IC50: 110 nM for the first, 80 nM for the second.

Compared with `CC(=O)N1CCc2c(c(-c3ccc(Cl)c(C)c3)nn2CC(O)CN2CCC(c3nc4ccccc4s3)CC2)C1` (stereo not drawn) [Example 125, 1-[1-[3-(4-Benzothiazol-2-yl-piperidin-1-yl)-2-hydroxy-propyl]-3-(4-chloro-3-methyl-phenyl)-1,4,6,7-tetrahydro-pyrazolo[4,3-c]pyridin-5-yl]-ethanone], `Cc1cc(-c2nn(CC(O)CN3CCC(n4c(=O)[nH]c5ccccc54)CC3)c3c2CN(S(C)(=O)=O)CC3)ccc1Cl` (stereo not drawn) [Example 270, 1-(1-{3-[3-(4-Chloro-3-methyl-phenyl)-5-methanesulfonyl-4,5,6,7-tetrahydro-pyrazolo[4,3-c]pyridin-1-yl]-2-hydroxy-propyl}-piperidin-4-yl)-1,3-dihydro-benzoimidazol-2-one] is 6.2-fold lower in IC50: 250 nM for the first, 40 nM for the second.

Compared with `CC(C)(C)OC(=O)N1CCc2c(c(-c3ccc(Cl)c(Cl)c3)nn2CC(O)CN2CCC(n3nnc4ccccc43)CC2)C1` (stereo not drawn) [Example 183, 1-[3-(4-Benzotriazol-1-yl-piperidin-1-yl)-2-hydroxy-propyl]-3-(3,4-dichloro-phenyl)-1,4,6,7-tetrahydro-pyrazolo[4,3-c]pyridine-5-carboxylic acid tert-butyl ester], `Cn1c(=O)n(C2CCN(CCCn3nc(-c4ccc(C(F)(F)F)cc4)c4c3CCN(S(C)(=O)=O)C4)CC2)c2ncccc21` [Example 329, 3-(1-{3-[5-Methanesulfonyl-3-(4-trifluoromethyl-phenyl)-4,5,6,7-tetrahydro-pyrazolo[4,3-c]pyridin-1-yl]-propyl}-piperidin-4-yl)-1-methyl-1,3-dihydro-imidazo[4,5-b]pyridin-2-one] is 29-fold lower in IC50: 2300 nM for the first, 80 nM for the second. The second is the more potent here.
